Consider two compounds from ChEMBL document CHEMBL1137924, “Carbonic anhydrase inhibitors. Inhibition of the beta-class enzyme from the methanoarchaeon Methanobacterium thermoautotrophicum (Cab) with anions” (Bioorg Med Chem Lett, 2004).

Protein sequences, listed by entry. Tags and fused reporters are not part of them.
UniProt P00915, whole entry, looked up: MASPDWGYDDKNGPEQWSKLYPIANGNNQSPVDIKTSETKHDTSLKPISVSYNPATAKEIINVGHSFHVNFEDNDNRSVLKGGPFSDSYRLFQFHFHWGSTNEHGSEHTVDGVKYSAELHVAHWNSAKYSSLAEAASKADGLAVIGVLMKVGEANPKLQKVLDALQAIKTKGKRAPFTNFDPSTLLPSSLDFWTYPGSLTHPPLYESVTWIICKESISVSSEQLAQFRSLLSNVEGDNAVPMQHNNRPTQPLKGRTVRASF
UniProt P22748, whole entry, looked up: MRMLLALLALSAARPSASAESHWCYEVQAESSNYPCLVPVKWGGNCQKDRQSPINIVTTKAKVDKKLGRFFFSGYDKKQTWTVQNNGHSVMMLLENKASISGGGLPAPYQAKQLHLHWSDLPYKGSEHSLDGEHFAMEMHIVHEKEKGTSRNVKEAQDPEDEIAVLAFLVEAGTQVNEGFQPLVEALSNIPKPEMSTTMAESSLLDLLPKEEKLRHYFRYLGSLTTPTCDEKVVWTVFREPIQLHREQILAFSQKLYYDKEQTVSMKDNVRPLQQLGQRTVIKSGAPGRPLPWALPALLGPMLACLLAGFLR
UniProt P40881, whole entry, looked up: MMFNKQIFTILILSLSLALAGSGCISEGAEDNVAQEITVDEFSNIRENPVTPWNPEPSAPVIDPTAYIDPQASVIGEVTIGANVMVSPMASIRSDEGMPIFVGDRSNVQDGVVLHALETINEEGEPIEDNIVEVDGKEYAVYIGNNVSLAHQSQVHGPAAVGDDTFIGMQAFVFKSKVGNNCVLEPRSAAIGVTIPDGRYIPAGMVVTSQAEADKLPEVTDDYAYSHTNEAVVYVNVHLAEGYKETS

Molecules are shown by their SMILES.

One assay has as its target Carbonic anhydrase 1 (Homo sapiens, UniProt P00915).
Another assay has as its target Carbonic anhydrase 4 (Homo sapiens, UniProt P22748). In words: Inhibitory constant against carbonic anhydrase IV.
In the next assay the target is Carbonic anhydrase (Methanosarcina thermophila, UniProt P40881).
The target of another assay is Carbonic anhydrase 2 (Homo sapiens, UniProt P00918). The experiment in a line: Inhibitory constant against carbonic anhydrase II.

For `[N-]=[N+]=N`, the affinity at Carbonic anhydrase 1 corresponds to a Ki of 1.2 µM.

With `C#[N+][O-]`, the Ki (commonly a dissociation constant, usually derived from enzyme kinetics or from competition with a known ligand) turned out to be 30 µM on Carbonic anhydrase 4, 90 µM at Carbonic anhydrase, 30 µM on Carbonic anhydrase 2 and 0.7 µM on Carbonic anhydrase 1.
